In US20090155869A1, “ENGINEERED MICROORGANISMS FOR PRODUCING N-BUTANOL AND RELATED METHODS” (Gevo, Inc., priority 2006, published 2009):

System: E. coli DH5a cells

## n-butanol
0.5% n-butanol in LB medium
  growth rate: approximately halved
  max OD600: approximately halved
1% n-butanol in LB medium
  growth rates: could not be quantified
  max OD600, fold less: about 40 fold
